Patent US11530244B2, “Cyclic polypeptides for PCSK9 inhibition” (priority 2018, dated 2022)

Chains of the proteins cited; added tags and fusions are not shown. Residues count along the entry.
UniProt Q8NBP7, 31-152 partner: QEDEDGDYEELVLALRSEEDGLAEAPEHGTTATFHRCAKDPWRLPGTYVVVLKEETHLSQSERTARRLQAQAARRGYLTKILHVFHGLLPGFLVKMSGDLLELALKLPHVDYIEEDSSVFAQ
UniProt Q8NBP7, 153-692: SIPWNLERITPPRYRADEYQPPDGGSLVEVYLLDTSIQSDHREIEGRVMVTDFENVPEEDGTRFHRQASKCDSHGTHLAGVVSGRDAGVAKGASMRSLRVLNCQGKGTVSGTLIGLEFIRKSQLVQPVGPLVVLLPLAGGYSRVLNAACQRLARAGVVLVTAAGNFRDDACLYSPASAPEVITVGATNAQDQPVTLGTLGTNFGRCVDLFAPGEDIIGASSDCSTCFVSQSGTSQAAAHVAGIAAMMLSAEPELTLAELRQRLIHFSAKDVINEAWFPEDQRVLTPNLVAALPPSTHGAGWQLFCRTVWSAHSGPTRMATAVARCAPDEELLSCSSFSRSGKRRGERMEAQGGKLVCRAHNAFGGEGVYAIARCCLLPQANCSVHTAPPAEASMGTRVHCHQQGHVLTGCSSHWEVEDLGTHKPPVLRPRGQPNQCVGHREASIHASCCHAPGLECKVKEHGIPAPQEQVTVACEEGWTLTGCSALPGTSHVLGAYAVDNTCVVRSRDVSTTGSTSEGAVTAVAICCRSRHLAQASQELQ

Tests used:
[1] = target: human PCSK9 / human LDLR EGFa domain interaction (Homo sapiens (Human), UniProt Q8NBP7); experiment: TR-FRET assay of inhibition of the PCSK9-LDLR protein-protein interaction; format: binding
Description: A time-resolved fluorescence resonance energy (TR-FRET) assay was used to measure inhibition of the PCSK9-LDLR protein-protein interaction. Briefly, 20 nM avitag-biotinylated human PCSK9 was incubated with 20 nM his-tagged human LDLR EGFa domain in the presence of 5 nM LANCE Ulight Streptavidin (Perkin Elmer) and 5 nM europium-Anti-6×His (Perkin Elmer) for 2 hours covered at room temperature in buffer containing 50 mM HEPES, 150 mM NaCl, 5 mM CaCl2), 0.01% BSA and 0.01% Surfactant P20. Compounds were tested in dose-response and concentrations giving half-maximal inhibition calculated using a 4-parameter fit equation.

PCSK9 = PCSK9 (Homo sapiens (Human), UniProt Q8NBP7); experiment: PCSK9 Alexa FRET Standard assay (displacement of AlexaFluor647 tagged cyclic peptide Reagent A); format: binding
Description: A solution containing 1 nM biotinylated PCSK9+2.5 nM Lance Streptavidin Europium (Strep-Eu) was made in 50 mM HEPES pH 7.4, 0.15 M NaCl, 5 mM CaCl2), 0.01% BSA, and 0.01% Surfactant P20. A separate solution containing 40 nM of the AlexaFluor tagged cyclic peptide was made in the same buffer system. An Echo was used to transfer 0.750 ul of compound to an assay plate followed by the addition of 15 ul of PCSK9+Stept-Eu and 15 ul of AF peptide. The final assay volume was 30.750 ul containing 0.5 nM PCSK9, 1.25 nM Strep-Eu, and 20 nM AF cyclic peptide. The reaction was incubated at room temperature for at least two hours prior to fluorescence measurements using an Envision Multilabel Reader. IC50 values were determined by fitting data to a sigmoidal dose-response curve using nonlinear regression. Ki was then calculated from the IC50 and the KD of AF cyclic peptide. Counts (B-counts) of the europium-labeled PCSK9 were followed to observe if compounds were […]. A fall off of the B-counts likely indicated a false positive of inhibition. Data from this procedure was reported as “A=‘numerical value’ (nanomolar)”

Compound `COc1ccc(C[C@@H]2NC(=O)[C@H]([C@@H](C)OC)NC(=O)[C@@H]3CC/C=C\COc4cccc(c4)C[C@H](NC(=O)[C@@H](C)NC(=O)[C@H](C)NC(=O)CCSCc4cccc(c4)CSCCNC(=O)[C@]4(C)CCCN4C2=O)C(=O)N[C@@H](Cc2c[nH]c4ccc(F)cc24)C(=O)N3C)cc1` [Compound 501] has an IC50 [1] of 0.1 to 100 nM and an IC50 (PCSK9) of 0.11 to 100 nM.
Compound `COc1ccc(C[C@@H]2NC(=O)[C@H]([C@@H](C)OC)NC(=O)[C@@H]3CC/C=C/COc4cccc(c4)C[C@H](NC(=O)[C@@H](C)NC(=O)[C@H](C)NC(=O)CCSCc4cccc(c4)CSCCNC(=O)[C@]4(C)CCCN4C2=O)C(=O)N[C@@H](Cc2c[nH]c4ccc(F)cc24)C(=O)N3C)cc1` [Compound 503] has an IC50 [1] of 0.1 to 100 nM and an IC50 (PCSK9) of 0.11 to 100 nM.
With `COc1ccc(C[C@@H]2NC(=O)[C@H]([C@@H](C)OC)NC(=O)[C@@H]3CCC/C=C/c4cccc(c4)C[C@H](NC(=O)[C@@H](C)NC(=O)[C@H](C)NC(=O)CCSCc4cccc(c4)CSCCNC(=O)[C@]4(C)CCCN4C2=O)C(=O)N[C@@H](Cc2c[nH]c4ccc(F)cc24)C(=O)N3C)cc1` [Compound 513] the IC50 (PCSK9) was 0.11 to 100 nM.
